Source: patent US20240360179A1, “STAPLED PEPTIDES AND METHODS THEREOF” (FOG PHARMACEUTICALS, INC., priority 2021, published 2024)

The chains behind the UniProt entries cited, without tags or fusion partners.
UniProt P35222, whole entry: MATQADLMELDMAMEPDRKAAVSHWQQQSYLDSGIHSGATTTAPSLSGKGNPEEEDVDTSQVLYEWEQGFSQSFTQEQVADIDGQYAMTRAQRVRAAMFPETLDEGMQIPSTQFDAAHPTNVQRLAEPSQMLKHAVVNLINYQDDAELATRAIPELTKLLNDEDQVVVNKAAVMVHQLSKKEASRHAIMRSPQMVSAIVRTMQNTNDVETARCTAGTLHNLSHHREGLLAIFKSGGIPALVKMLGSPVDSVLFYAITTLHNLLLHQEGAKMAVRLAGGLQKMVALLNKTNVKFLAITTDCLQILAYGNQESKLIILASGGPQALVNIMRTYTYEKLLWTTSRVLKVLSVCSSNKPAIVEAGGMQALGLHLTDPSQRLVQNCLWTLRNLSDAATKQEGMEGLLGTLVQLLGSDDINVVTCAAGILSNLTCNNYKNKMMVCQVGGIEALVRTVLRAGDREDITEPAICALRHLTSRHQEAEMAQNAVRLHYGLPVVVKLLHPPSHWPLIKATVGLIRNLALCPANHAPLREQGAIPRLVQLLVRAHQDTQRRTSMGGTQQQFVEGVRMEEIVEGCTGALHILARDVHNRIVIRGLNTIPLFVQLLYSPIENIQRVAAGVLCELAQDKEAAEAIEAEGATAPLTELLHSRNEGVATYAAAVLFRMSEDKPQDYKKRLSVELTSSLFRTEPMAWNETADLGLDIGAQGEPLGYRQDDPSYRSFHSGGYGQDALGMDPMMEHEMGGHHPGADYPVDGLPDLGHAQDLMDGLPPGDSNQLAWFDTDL

Columns and labels:
[1] = molecular target: T1, full-length B-Catenin (Uniprot ID P35222) (Homo sapiens, UniProt P35222); test: biochemical; format: binding; settings: beta-Catenin FP IC50 (nM), competition fluorescence polarization
T1 construct: 10 nM full-length B-Catenin (Uniprot ID P35222)

[2] = molecular target: beta-catenin/TCF4 interaction (Homo sapiens, UniProt P35222); test: cell-based; design: host or cells: HEK293; settings: NanoBRET Abs IC50 (uM)

Structure (SMILES) | IC50 [1] | IC50 ([2]; absolute IC50) | IC50 [2]
CC(=O)N1CCC[C@]12CC=CCCCC1(CCCC=CCCCOC(=O)N3CC[C@@]4(C3)NC(=O)[C@H](CCCCNC(=O)CC[C@@H](C(=O)N[C@@H](C)C(N)=O)NC(=O)[C@H](Cc3csc5ccccc35)NC(=O)[C@H](Cc3ccsc3)NC4=O)NC(=O)[C@H](Cc3ccccc3)NC(=O)[C@H](C)NC(=O)C(C)(C)NC(=O)[C@H](Cc3cccc(C(=O)O)c3)NC(=O)[C@H](CC(=O)O)NC1=O)NC(=O)[C@H](CC(C)(C)C)NC(=O)[C@H](CCCC(=O)O)NC2=O (single isomer, unassigned) [I-545, Ac-PL3-Aad-Npg-B5-Asp-3COOHF-Aib-Ala-Phe-Lys*3-PyrS2-3Thi-BztA-GlnR*3-Ala-NH2] | 200 to 750 nM | > 10 µM | 
CC(=O)N1CCC[C@]12CC=CCCCC1(CCCC=CCCCOC(=O)N3CC[C@@]4(C3)NC(=O)[C@H](Cc3cn(nn3)CCCC[C@@H](C(N)=O)NC(=O)[C@H](Cc3csc5ccccc35)NC(=O)[C@H](Cc3ccccc3C(F)(F)F)NC4=O)NC(=O)[C@H](Cc3ccccc3)NC(=O)[C@H](C)NC(=O)[C@H](C)NC(=O)[C@H](Cc3cccc(C(=O)O)c3)NC(=O)[C@H](CC(=O)O)NC1=O)NC(=O)[C@H](CC(C)(C)C)NC(=O)[C@H](CC(=O)O)NC2=O (stereo partly drawn) [I-25, Ac-PL3-Asp-Npg-B5-Asp-3COOHF-Ala-Ala-Phe-sAla*3-PyrS2-2F3MeF-BztA-TriAzLys*3-NH2] | < 50 nM |  | 3 to 10 µM
CC(=O)N1CCC[C@]12CC=CCCCC1(CCCC=CCCCOC(=O)N3CC[C@@](C(=O)N[C@@H](Cc4ccsc4)C(=O)N[C@@H](Cc4csc5ccccc45)C(=O)N[C@@H](CCC(N)=O)C(N)=O)(C3)NC(=O)[C@@H]3Cc4cn(nn4)CCCC[C@H](NC(=O)[C@H](CC(=O)O)NC(=O)[C@H](CC(=O)O)NC1=O)C(=O)N[C@@H](C)C(=O)N[C@@H](Cc1ccccc1)C(=O)N3)NC(=O)[C@H](CC(C)(C)C)NC(=O)[C@H](CC(=O)O)NC2=O (stereo partly drawn) [I-29, Ac-PL3-Asp-Npg-B5-Asp-Asp-TriAzLys*3-Ala-Phe-sAla*3-PyrS2-3Thi-BztA-Gln-NH2] | < 50 nM |  | > 10 µM
CC(=O)N1CCC[C@]12CC=CCCCC1(CCCC=CCCCOC(=O)N3CC[C@@](C(=O)N[C@@H](Cc4ccsc4)C(=O)N[C@@H](Cc4csc5ccccc45)C(=O)N[C@@H](CCC(N)=O)C(N)=O)(C3)NC(=O)[C@@H]3Cc4cn(nn4)CCCC[C@H](NC(=O)[C@H](Cc4cccc(C(=O)O)c4)NC(=O)[C@H](CC(=O)O)NC1=O)C(=O)N[C@@H](C)C(=O)N[C@@H](Cc1ccccc1)C(=O)N3)NC(=O)[C@H](CC(C)(C)C)NC(=O)[C@H](CC(=O)O)NC2=O (stereo partly drawn) [I-30, Ac-PL3-Asp-Npg-B5-Asp-3COOHF-TriAzLys*3-Ala-Phe-sAla*3-PyrS2-3Thi-BztA-Gln-NH2] | < 50 nM |  | > 10 µM
CC(=O)N1CCC[C@]12CC=CCCCC1(CCCC=CCCCOC(=O)N3CC[C@@](C(=O)N[C@@H](Cc4ccccc4C(F)(F)F)C(=O)N[C@@H](Cc4csc5ccccc45)C(=O)N[C@@H](CCC(N)=O)C(N)=O)(C3)NC(=O)[C@@H]3Cc4cn(nn4)CCCC[C@H](NC(=O)[C@H](Cc4cccc(C(=O)O)c4)NC(=O)[C@H](CC(=O)O)NC1=O)C(=O)N[C@@H](C)C(=O)N[C@@H](Cc1ccccc1)C(=O)N3)NC(=O)[C@H](CC(C)(C)C)NC(=O)[C@H](CC(=O)O)NC2=O (stereo partly drawn) [I-31, Ac-PL3-Asp-Npg-B5-Asp-3COOHF-TriAzLys*3-Ala-Phe-sAla*3-PyrS2-2F3MeF-BztA-Gln-NH2] | < 50 nM |  | > 10 µM
CC(=O)N1CCC[C@]12CC=CCCCC1(CCCC=CCCCOC(=O)N3CC[C@@]4(C3)NC(=O)[C@H](Cc3cn(nn3)CCCC[C@@H](C(=O)N[C@@H](C)C(N)=O)NC(=O)[C@H](Cc3csc5ccccc35)NC(=O)[C@H](Cc3ccsc3)NC4=O)NC(=O)[C@H](Cc3ccccc3)NC(=O)[C@H](C)NC(=O)C(C)(C)NC(=O)[C@H](Cc3cccc(C(=O)O)c3)NC(=O)[C@H](CC(=O)O)NC1=O)NC(=O)[C@H](CC(C)(C)C)NC(=O)[C@H](CC(=O)O)NC2=O (stereo partly drawn) [I-336, Ac-PL3-Asp-Npg-B5-Asp-3COOHF-Aib-Ala-Phe-sAla*3-PyrS2-3Thi-BztA-TriAzLys*3-Ala-NH2] | < 50 nM | 1.5 to 3 µM | 

Further lines, results first:

IC50 [1] | IC50 ([2]; absolute IC50) | IC50 [2] | Structure (SMILES)
< 50 nM | 1.5 to 3 µM |  | CC(=O)N1CCC[C@]12CC=CCCCC1(CCCC=CCCCOC(=O)N3CC[C@@]4(C3)NC(=O)[C@H](CCCCNC(=O)CC[C@@H](C(=O)N[C@H](C(=O)N[C@H](C(=O)N[C@@H](C)C(N)=O)[C@H](C)O)C(C)C)NC(=O)[C@H](Cc3csc5ccccc35)NC(=O)[C@H](Cc3ccsc3)NC4=O)NC(=O)[C@H](Cc3ccccc3)NC(=O)[C@H](C)NC(=O)C(C)(C)NC(=O)[C@H](Cc3cccc(C(=O)O)c3)NC(=O)[C@H](CC(=O)O)NC1=O)NC(=O)[C@H](CC(C)(C)C)NC(=O)[C@H](CC(=O)O)NC2=O (single isomer, unassigned) [I-510, Ac-PL3-Asp-Npg-B5-Asp-3COOHF-Aib-Ala-Phe-Lys*3-PyrS2-3Thi-BztA-GlnR*3-Val-aThr-Ala-NH2]
< 50 nM | 3 to 10 µM |  | CC(=O)N1CCC[C@]12CC=CCCCC1(CCCC=CCCCOC(=O)N3CC[C@@]4(C3)NC(=O)[C@H](CCCCNC(=O)CC[C@@H](C(=O)N[C@H](C(=O)N[C@@H](CC(=O)O)C(=O)N[C@@H](CC(C)C)C(N)=O)C(C)C)NC(=O)[C@H](Cc3csc5ccccc35)NC(=O)[C@H](Cc3ccsc3)NC4=O)NC(=O)[C@H](Cc3ccccc3)NC(=O)[C@H](C)NC(=O)C(C)(C)NC(=O)[C@H](Cc3cccc(C(=O)O)c3)NC(=O)[C@H](CC(=O)O)NC1=O)NC(=O)[C@H](CC(C)(C)C)NC(=O)[C@H](CC(=O)O)NC2=O (single isomer, unassigned) [I-512, Ac-PL3-Asp-Npg-B5-Asp-3COOHF-Aib-Ala-Phe-Lys*3-PyrS2-3Thi-BztA-GlnR*3-Val-Asp-Leu-NH2]
< 50 nM |  | 3 to 10 µM | CC(=O)N1CCC[C@]12CC=CCCCC1(CCCC=CCCCOC(=O)N3CC[C@@]4(C3)NC(=O)[C@H](Cc3cn(nn3)CCCC[C@@H](C(N)=O)NC(=O)[C@H](Cc3csc5ccccc35)NC(=O)[C@H](Cc3ccsc3)NC4=O)NC(=O)[C@H](Cc3ccccc3)NC(=O)[C@H](C)NC(=O)[C@H](C)NC(=O)[C@H](CC(=O)O)NC(=O)[C@H](CC(=O)O)NC1=O)NC(=O)[C@H](CC(C)(C)C)NC(=O)[C@H](CC(=O)O)NC2=O (stereo partly drawn) [I-23, Ac-PL3-Asp-Npg-B5-Asp-Asp-Ala-Ala-Phe-sAla*3-PyrS2-3Thi-BztA-TriAzLys*3-NH2]
< 50 nM |  | 3 to 10 µM | CC(=O)N1CCC[C@]12CC=CCCCC1(CCCC=CCCCOC(=O)N3CC[C@@]4(C3)NC(=O)[C@H](Cc3cn(nn3)CCCC[C@@H](C(N)=O)NC(=O)[C@H](Cc3csc5ccccc35)NC(=O)[C@H](Cc3ccsc3)NC4=O)NC(=O)[C@H](Cc3ccccc3)NC(=O)[C@H](C)NC(=O)[C@H](C)NC(=O)[C@H](Cc3cccc(C(=O)O)c3)NC(=O)[C@H](CC(=O)O)NC1=O)NC(=O)[C@H](CC(C)(C)C)NC(=O)[C@H](CC(=O)O)NC2=O (stereo partly drawn) [I-24, Ac-PL3-Asp-Npg-B5-Asp-3COOHF-Ala-Ala-Phe-sAla*3-PyrS2-3Thi-BztA-TriAzLys*3-NH2]
